This is an account of results in PubChem BioAssay AID624 (Vanderbilt High Throughput Screening Facility, 2007).

Protein sequences, listed by entry. Tags and fused reporters are not part of them.
UniProt P18825, whole entry: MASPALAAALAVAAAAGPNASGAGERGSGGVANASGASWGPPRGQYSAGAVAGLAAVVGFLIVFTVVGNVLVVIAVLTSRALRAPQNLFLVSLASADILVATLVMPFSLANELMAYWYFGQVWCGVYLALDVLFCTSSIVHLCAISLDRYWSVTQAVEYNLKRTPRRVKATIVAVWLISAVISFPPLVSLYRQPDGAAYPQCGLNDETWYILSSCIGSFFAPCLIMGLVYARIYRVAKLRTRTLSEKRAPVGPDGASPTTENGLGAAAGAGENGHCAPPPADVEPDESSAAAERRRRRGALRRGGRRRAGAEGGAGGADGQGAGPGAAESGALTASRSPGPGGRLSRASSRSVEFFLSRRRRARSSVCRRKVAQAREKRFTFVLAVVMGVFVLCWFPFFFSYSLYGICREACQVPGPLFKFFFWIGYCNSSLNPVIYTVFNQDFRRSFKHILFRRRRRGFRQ

Molecules are shown by their SMILES. The list shows a part of the results, in another mix than the full data. Calls of active or inactive are those of the source.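 The calls were made as follows: active = fluorescence slope after compound addition differing from the mean of all screened samples at 99.7% confidence, in either direction; inactive = the rest.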

The test deals with Alpha-2C adrenergic receptor (Homo sapiens) (UniProt P18825). Nature of the test: compounds altering alpha2C-coupled GIRK flux – cell-based, HEK293 alpha2C/GIRK1/2, thallium flux, primary screen (AID 624).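 Also: slope of fluorescence ratio to pre-addition baseline per second over 15 to 24 s.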 The conditions noted are these: thallium flux BTC fluorescence, at 10 µM, actives lie on both sides.
On to `CP(=S)(Nn1cnnc1)Oc1ccccc1` (stereo not given), for which the slope was inactive: 0.00597.

As to `Cc1ccc(C)c(NP(C)(=O)Oc2ccccc2)c1` (stereo not given), the slope is inactive: 0.00339.

On to `CP(=O)(Nc1ccc2c(c1)OCCO2)Oc1ccccc1` (stereo not given), for which the slope was inactive: 0.00621.

On to `CCN(CC)CC(O)COC(=O)C(O)(c1ccccc1)C1CCCCC1` (stereo not given), for which the slope is inactive: 0.00431.

In the case of `CP(=O)(Nc1ccccn1)Oc1ccccc1` (stereo not given), the slope was inactive: 0.00539.
